The values that follow come from ChEMBL document CHEMBL4402597, “Truncated (N)-Methanocarba Nucleosides as Partial Agonists at Mouse and Human A3 Adenosine Receptors: Affinity Enhancement by N6-(2-Phenylethyl) Substitution” (J Med Chem, 2020).

The species entered for one assay is Homo sapiens. The assay can be described thus: Selectivity ratio of Ki for displacement of [3H]R-PIA from recombinant human A1AR expressed in HEK293 cell membranes to Ki for displacement of [125I]I-AB-MECA from recombinant human A3AR expressed in HEK293 cell membranes. It counts as cell-based. A general note: In a radioligand displacement assay an active substance lowers the binding of a labelled ligand.

The species entered for the next assay is Mus musculus. The assay can be described thus: Selectivity ratio of Ki for displacement of [3H]R-PIA from recombinant mouse A1AR expressed in HEK293 cell membranes to Ki for displacement of [125I]I-AB-MECA from recombinant mouse A3AR expressed in HEK293 cell membranes. The class given is cell-based.

Regarding `COc1cc(CCNc2nc(C#Cc3ccccc3F)nc3c2ncn3[C@H]2[C@H](O)[C@H](O)[C@@H]3C[C@@H]32)ccc1O`, the Ratio Ki in the assay filed under Homo sapiens was found to be 30.

As to `COc1cc(CCNc2nc(C#Cc3ccc(Br)s3)nc3c2ncn3[C@H]2[C@H](O)[C@H](O)[C@@H]3C[C@@H]32)ccc1O`, the Ratio Ki in the assay listed under Mus musculus was more than 1000.
